This passage reports Activity results from ChEMBL document CHEMBL4619802, “Discovery and Characterization of Pure RhlR Antagonists against Pseudomonas aeruginosa Infections” (J Med Chem, 2020).

Experiment [1] concerns the target T1, HTH-type quorum-sensing regulator RhlR (Pseudomonas aeruginosa (strain ATCC 15692 / PAO1 / 1C / PRS 101 / LMG12228)) (UniProt P54292).
T1 sequence (whole entry): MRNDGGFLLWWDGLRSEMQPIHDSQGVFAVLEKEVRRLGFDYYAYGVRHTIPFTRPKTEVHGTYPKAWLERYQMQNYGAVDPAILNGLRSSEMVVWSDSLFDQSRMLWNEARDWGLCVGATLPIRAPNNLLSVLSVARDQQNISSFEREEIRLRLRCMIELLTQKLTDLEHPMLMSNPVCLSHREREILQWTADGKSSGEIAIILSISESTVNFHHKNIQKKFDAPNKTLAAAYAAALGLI
The experiment in a line: Modulation of RhlR in Pseudomonas aeruginosa assessed as reduction in biofilm formation at 10 uM incubated for 48 hrs under dynamic condition by 4',6-diamidino-2-phenylindole staining based confocal laser scanning microscopy relative to control. Also on record: scale not given: the % may be the effect or the level left.

Experiment [2] concerns the target T1, HTH-type quorum-sensing regulator RhlR (Pseudomonas aeruginosa (strain ATCC 15692 / PAO1 / 1C / PRS 101 / LMG12228)). The experiment in a line: Antagonist activity at RhlR in Pseudomonas aeruginosa assessed as reduction in pyocyanin production at 10 uM after 24 hrs by RT-qPCR method relative to control. Also on record: scale not given: the % may be the effect or the level left.

For the molecule `CCCC(=O)C#Cc1ccc(F)c(F)c1`, the Activity in experiment [1] worked out at 74%; in experiment [2] it was 44%.
